The values that follow come from ChEMBL document CHEMBL1127438, “Substituted (S)-phenylpiperidines and rigid congeners as preferential dopamine autoreceptor antagonists: synthesis and structure-activity relationships” (J Med Chem, 1994).

Protein sequences, listed by entry. Tags and fused reporters are not part of them.
UniProt P14416, whole entry: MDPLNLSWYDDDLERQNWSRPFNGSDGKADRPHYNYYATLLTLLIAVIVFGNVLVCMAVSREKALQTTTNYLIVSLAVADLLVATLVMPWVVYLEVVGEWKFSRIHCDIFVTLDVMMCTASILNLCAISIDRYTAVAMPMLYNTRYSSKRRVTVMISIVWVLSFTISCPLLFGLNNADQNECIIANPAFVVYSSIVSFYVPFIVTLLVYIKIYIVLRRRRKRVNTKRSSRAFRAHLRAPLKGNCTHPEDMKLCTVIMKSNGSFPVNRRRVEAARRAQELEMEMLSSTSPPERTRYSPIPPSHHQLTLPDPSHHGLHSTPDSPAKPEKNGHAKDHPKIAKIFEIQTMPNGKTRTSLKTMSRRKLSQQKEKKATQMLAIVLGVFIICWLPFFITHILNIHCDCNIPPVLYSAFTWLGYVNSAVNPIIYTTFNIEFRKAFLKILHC
UniProt P35462, whole entry: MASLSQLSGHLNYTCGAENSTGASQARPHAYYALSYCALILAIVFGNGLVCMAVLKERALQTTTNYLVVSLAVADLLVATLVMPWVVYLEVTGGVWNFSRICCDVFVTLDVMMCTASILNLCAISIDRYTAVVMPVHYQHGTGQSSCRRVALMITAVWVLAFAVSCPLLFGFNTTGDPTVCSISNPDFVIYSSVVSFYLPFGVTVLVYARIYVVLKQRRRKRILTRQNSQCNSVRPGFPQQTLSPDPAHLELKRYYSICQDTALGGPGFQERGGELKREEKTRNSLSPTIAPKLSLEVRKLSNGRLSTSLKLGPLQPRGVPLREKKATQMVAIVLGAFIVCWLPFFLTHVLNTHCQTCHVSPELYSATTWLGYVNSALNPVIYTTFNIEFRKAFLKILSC
UniProt P61169, whole entry: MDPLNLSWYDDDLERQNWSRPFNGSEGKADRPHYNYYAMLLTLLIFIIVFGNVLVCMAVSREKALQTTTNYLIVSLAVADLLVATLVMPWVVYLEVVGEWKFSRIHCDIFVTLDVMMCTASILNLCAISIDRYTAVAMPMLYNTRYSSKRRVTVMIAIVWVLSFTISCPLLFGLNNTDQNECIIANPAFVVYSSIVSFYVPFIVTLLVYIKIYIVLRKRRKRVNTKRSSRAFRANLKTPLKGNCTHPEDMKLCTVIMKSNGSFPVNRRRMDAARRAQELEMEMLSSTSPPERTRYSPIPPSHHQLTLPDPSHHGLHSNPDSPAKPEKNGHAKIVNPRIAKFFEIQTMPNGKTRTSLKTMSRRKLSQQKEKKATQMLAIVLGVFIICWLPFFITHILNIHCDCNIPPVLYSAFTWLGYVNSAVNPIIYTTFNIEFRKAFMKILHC

Test [1] deals with T1, D(2) dopamine receptor (Homo sapiens, UniProt P14416). In words: biochemical.
The target in a further test is D(3) dopamine receptor (Homo sapiens, UniProt P35462). Put plainly: Tested for in vitro binding affinity against cloned mammalian dopamine D3 receptor, expressed in CHO-K1 cells, using [3H]spiperone as radioligand. Format: cell-based.
Test [2] addresses T1, D(2) dopamine receptor. In words: biochemical. This is another data set of the same source.
The target in test [3] is T2, D(2) dopamine receptor (Rattus norvegicus, UniProt P61169).
Test [4] has as its target T2, D(2) dopamine receptor. In words: Tested for affinity against striatal dopamine autoreceptor (DA) D2 receptors using [3H]spiperone as radioligand in rats.

Consider `CCCN1CCC[C@@H](c2cccc(O)c2)C1` [PRECLAMOL], for which the values for the inhibition constant Ki at D(2) dopamine receptor [1], on D(3) dopamine receptor and at D(2) dopamine receptor [2] were 8.5 nM, 132 nM and 39 nM, respectively.

On to `N#Cc1cccc([C@@H]2CCCN(CC3CC3)C2)c1`, for which the Ki (commonly a dissociation constant, usually derived from enzyme kinetics or from competition with a known ligand) on D(2) dopamine receptor [3] stood at 3100 nM.

Turning to `CCCN1CCC[C@@H](c2ccccc2OS(=O)(=O)C(F)(F)F)C1`, the inhibitory constant (Ki) at D(2) dopamine receptor [4] worked out at 92 nM.
